The text below walks through data of patent US11104703B2, “Binding compound and uses thereof” (priority 2016, dated 2021).

The chains behind the UniProt entries cited, without tags or fusion partners. Where a name states a change or a piece, a line headed by the entry shows the natural chain unless it says otherwise.
UniProt Q9Y5Y6, whole entry, species assumed: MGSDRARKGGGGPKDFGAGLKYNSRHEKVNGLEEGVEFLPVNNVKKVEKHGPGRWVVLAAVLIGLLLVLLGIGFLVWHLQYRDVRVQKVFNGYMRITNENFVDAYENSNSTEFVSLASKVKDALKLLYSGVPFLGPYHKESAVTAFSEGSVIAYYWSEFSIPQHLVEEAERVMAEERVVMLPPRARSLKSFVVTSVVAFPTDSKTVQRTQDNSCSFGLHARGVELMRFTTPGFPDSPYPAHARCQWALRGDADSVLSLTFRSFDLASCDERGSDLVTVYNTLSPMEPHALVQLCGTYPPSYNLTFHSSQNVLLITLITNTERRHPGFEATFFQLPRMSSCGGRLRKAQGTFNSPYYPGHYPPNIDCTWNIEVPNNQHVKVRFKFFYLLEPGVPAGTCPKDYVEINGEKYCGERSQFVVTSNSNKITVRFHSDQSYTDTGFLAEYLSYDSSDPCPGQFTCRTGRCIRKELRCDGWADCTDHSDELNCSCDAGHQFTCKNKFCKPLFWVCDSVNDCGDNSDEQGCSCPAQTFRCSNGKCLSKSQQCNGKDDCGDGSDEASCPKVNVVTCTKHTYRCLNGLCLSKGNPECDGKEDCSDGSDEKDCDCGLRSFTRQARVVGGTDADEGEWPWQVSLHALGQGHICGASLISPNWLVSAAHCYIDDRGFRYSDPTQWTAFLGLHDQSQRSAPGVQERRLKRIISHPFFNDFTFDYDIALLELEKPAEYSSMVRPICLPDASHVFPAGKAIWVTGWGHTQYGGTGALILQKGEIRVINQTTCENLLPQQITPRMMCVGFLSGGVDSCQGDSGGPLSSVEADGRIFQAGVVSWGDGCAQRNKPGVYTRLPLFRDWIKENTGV
UniProt O60235: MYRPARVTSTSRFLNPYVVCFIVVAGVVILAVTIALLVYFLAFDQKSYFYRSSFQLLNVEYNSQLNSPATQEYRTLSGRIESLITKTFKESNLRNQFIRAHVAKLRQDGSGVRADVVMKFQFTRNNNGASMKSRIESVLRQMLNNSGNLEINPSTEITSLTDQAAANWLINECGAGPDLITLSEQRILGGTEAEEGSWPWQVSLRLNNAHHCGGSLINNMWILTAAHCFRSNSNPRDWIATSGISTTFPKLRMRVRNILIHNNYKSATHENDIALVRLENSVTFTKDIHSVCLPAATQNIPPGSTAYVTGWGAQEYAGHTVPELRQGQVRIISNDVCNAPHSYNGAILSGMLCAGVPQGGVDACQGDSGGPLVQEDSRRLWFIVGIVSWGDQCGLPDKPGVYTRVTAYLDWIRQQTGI

For one data set, the target named is Matriptase (Homo sapiens, UniProt Q9Y5Y6). Particulars: Mean (±SD).
For data set [1], the target named is Human Airways Trypsin-like protease (HAT) (Homo sapiens, UniProt O60235). Particulars: Mean (±SD).
Data set [2] concerns CuFi cells (a CF human epithelial cell line). Particulars: 24 hours, 1-100 μM.
The target of another data set is Thrombin (Homo sapiens, UniProt P00734). Particulars: Boc-Val-Pro-Arg-NHMec 50 μM, Mean (±SD).
Another data set deals with Trypsin. Particulars: PBS pH 7.4, 37° C., Cbz-Gly-Gly-Arg-NHMec 50 μM, Mean (±SD).

With “Biotin-PEG-NH-Gly-Gly-N-(n-guanidino-propyl)-glycine succinimidyl carbamate [NAP858]”, the Ki at Matriptase is 733 nM; in data set [1], 659 nM. In addition, the “cytotoxicity (MTS, viable cells)” value in data set [2] is on record as “well tolerated”.

Turning to “Biotin-PEG-NH—(N-benzyl-glycyl)-(D)-phenylalanyl-N-(n-guanidino-propyl)-glycine succinimidyl carbamate [NAT988]”, the Ki at Thrombin turned out to be 880 nM.

Take “Biotin-PEG-NH—N-(n-guanidino-propyl)-glycine-Gln-Sar-N-(n-guanidino-propyl)-glycine succinimidyl carbamate [NAP1099]”: the values for the Ki (at Matriptase; in data set [1]; on Trypsin) were 83.3 nM, 322 nM and 150 nM, respectively. In addition, the “cytotoxicity (MTS, viable cells)” value in data set [2] is on record as “well tolerated”.

On to “Biotin-PEG-NH—N-(n-guanidino-propyl)-glycine-N(Val)-N(Lys)-N-(n-guanidino-propyl)-glycine succinimidyl carbamate [NAP1127]”, for which the “cytotoxicity (MTS, viable cells)” value in data set [2] is recorded as “well tolerated”.

Usually Ki stands for the equilibrium dissociation constant of an inhibitor or competing ligand from its target. Low readings indicate tighter binding, high ones weaker binding.
